# Ab-14 light chain CDR variants: yeast mating affinities

Values reported by Engelhart et al. 2022, doi:10.1038/s41597-022-01779-4 (FLAb copy).

All variants were tested on one target, the spike HR2 peptide PDVDLGDISGINAS (SARS-CoV-2).

Parent: Ab-14, a human scFv built as VH, a 15-residue (Gly4Ser)3 linker, VL. Only the CDRs of the light chain vary.
VH: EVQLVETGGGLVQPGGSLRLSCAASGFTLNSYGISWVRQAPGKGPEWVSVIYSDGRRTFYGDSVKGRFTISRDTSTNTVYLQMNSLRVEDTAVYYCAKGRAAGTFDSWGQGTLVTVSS
VL: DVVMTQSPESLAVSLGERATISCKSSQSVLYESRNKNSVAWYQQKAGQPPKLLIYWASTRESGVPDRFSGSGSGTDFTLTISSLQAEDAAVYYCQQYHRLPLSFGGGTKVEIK

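The library (AAYL50) carries one to three amino acid substitutions per variant, with no insertions or deletions. The assay is AlphaSeq: two haploid yeast populations carry antibody and antigen on their surface. After mating in shaken culture at 30 °C for 16 h, diploids were selected and their barcode pairs sequenced. Scores were corrected for input abundance and mapped to Kd with protein pairs of known affinity run in the same pool. There are three technical replicates.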

Positions count from residue 1 of the parent VL; R34Q puts Q in place of R.
All variants listed here change R99 of the VL, counted from its first residue.
Scale: log10 of Kd in nM, estimated from mating counts; low values are strong binders.
The mean shown is taken over the replicates in which the pair was detected.
"no signal" means that the variant was in the library but no mating with the target was seen in any replicate; the authors take this as a sign of poor binding, and no number exists.
Empty control strains, which show no peptide, gave a signal in 18% of pairings with library AAYL50; the median was 4.19 and 95% of these signals were weaker than 2.99. No background was subtracted.

With R34Q N35S R99M the result was 0.89 (3 of 3 replicates). Variant T59H Y97R R99Q gave 5.33 (3 of 3 replicates). For Q96H R99G L100A, the assay gave no signal (0 of 3 replicates). Variant E32H Q96G R99W showed 2.29 (3 of 3 replicates). Variant Y97N H98N R99E gave no signal (0 of 3 replicates).

Variant S33G S58Y R99G showed 3.06 (2 of 3 replicates). Variant S33Q R99C showed no signal (0 of 3 replicates). For S28D R99H L102T, the assay gave 1.80 (3 of 3 replicates). Variant R99A gave 0.92 (3 of 3 replicates). For K24I T59S R99W, the assay gave no signal (0 of 3 replicates).

Variant N37T S58M R99F gave 2.13 (3 of 3 replicates). Variant N37M R99Q gave 1.42 (3 of 3 replicates). For V29W Y31E R99F, the assay gave 1.08 (3 of 3 replicates). Variant K36I A40W R99T gave 3.43 (2 of 3 replicates). For N37G Q96L R99Y, the assay gave no signal (0 of 3 replicates).

Variant N37V S62M R99E showed no signal (0 of 3 replicates). With H98R R99L L102W the result was no signal (0 of 3 replicates). With Q27D W56V R99S the result was 4.52 (2 of 3 replicates). Variant K36V S58V R99T showed 4.08 (1 of 3 replicates). Variant T59V R99A showed 1.01 (3 of 3 replicates).

With R99D L102K the result was 3.37 (3 of 3 replicates). For Y31K R99H L102P, the assay gave 1.55 (3 of 3 replicates). For S28C H98S R99N, the assay gave no signal (0 of 3 replicates). With Q27E K36V R99W the result was 4.93 (2 of 3 replicates). For R34Q S58C R99D, the assay gave no signal (0 of 3 replicates).

For E32Q N37L R99W, the assay gave no signal (0 of 3 replicates). With E32Y S33Q R99C the result was 2.09 (3 of 3 replicates). Variant R34E R60F R99S gave 3.06 (1 of 3 replicates). Variant V29L Y31P R99P gave 0.50 (3 of 3 replicates). With S62W Y97S R99V the result was 4.79 (1 of 3 replicates).

For Y31L S58V R99L, the assay gave 2.16 (3 of 3 replicates). For S26P W56N R99Q, the assay gave 0.50 (3 of 3 replicates). For S26E V29Q R99E, the assay gave 0.75 (3 of 3 replicates). Variant A40C Q95R R99L showed 2.64 (3 of 3 replicates). For S33E R99N L102P, the assay gave 3.29 (1 of 3 replicates).

Variant V29S E32A R99P showed 0.93 (3 of 3 replicates). For S25Q S26I R99H, the assay gave 2.14 (3 of 3 replicates). Variant K24C Q95E R99Q gave 3.65 (3 of 3 replicates). Variant L30S R99F showed 1.52 (3 of 3 replicates). With S28C S62P R99A the result was 2.76 (3 of 3 replicates).

Variant R60F S62Q R99D gave no signal (0 of 3 replicates). Variant S33D A57L R99H showed no signal (0 of 3 replicates). Variant V29N Q95C R99K gave 2.74 (3 of 3 replicates). Variant K36Q Q95L R99D gave 0.45 (3 of 3 replicates). With E32S R99S S103K the result was no signal (0 of 3 replicates).